Source: patent US4076821A (priority 1976, dated 1978)
This is a selection: effects in other tests are not listed, and their absence says nothing.

Experiments:
Acute toxicity (LD50) = details: female mouse, per os; Litchfield-Wilcoxon method
[1] = Anti-apomorphine effect (ED50); assay type: in vivo, rat; details: p.o.; groups of 5-7 female rats

## O=c1[nH]c2cc(Cl)ccc2n1C1CCN(C2C=CC(c3ccc(F)cc3)(c3ccc(F)cc3)CC2)CC1 (stereo not drawn)
Acute toxicity (LD50)
  LD50: ≥ 1000 mg/kg
[1]
  ED50, anti-apomorphine effect: 0.51 mg/kg

## O=c1[nH]c2cc(F)ccc2n1C1CCN(C2CCC(c3ccc(F)cc3)(c3ccc(F)cc3)CC2)CC1
[1]
  ED50, anti-apomorphine effect: 0.14 mg/kg

## O=c1[nH]c2cc(F)ccc2n1C1CCN(C2C=CC(c3ccc(F)cc3)(c3ccc(F)cc3)CC2)CC1 (stereo not drawn)
[1]
  ED50, anti-apomorphine effect: 0.17 mg/kg

## O=c1[nH]c2cc(Cl)ccc2n1C1CCN(C2CCC(c3ccc(F)cc3)(c3ccc(F)cc3)CC2)CC1
Acute toxicity (LD50)
  LD50: > 1000 mg/kg
[1]
  ED50, anti-apomorphine effect: 0.18 mg/kg
